Our source for the solubility in water values is patent publication US12161743B2, “Chlorhexidine-cyclamate complexes and oral care compositions comprising the same” (Colgate-Palmolive Company, priority 2017, dated 2024).

For this data set the following is noted: qualitative statement, no method described.

For chlorhexidine-cyclamate complex [CHC], the solubility in water entry was “largely insoluble in water”.
